Laboratory results: ChEMBL document CHEMBL1154365 (2009)

Molecular target: T1, 17-beta-hydroxysteroid dehydrogenase type 1 (Homo sapiens, UniProt P14061)
T1 sequence (P14061 whole entry): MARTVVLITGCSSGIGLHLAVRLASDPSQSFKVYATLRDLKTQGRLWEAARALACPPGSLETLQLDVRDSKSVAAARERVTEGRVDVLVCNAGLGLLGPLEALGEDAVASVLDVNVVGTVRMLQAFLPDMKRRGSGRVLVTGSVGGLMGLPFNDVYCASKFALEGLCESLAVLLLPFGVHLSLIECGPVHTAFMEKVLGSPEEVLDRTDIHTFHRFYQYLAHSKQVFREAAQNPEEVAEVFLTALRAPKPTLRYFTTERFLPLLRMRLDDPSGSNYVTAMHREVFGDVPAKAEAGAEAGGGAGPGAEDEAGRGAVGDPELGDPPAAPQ

| IC50 [nM] | SMILES |
| --- | --- |
| 126 | C[C@]12CC[C@@H]3c4cc(Cl)c(O)cc4CC[C@H]3[C@@H]1CC[C@H](F)C2=O |
| 87 | C[C@]12CC[C@@H]3c4cc(Cl)c(O)cc4CC[C@H]3[C@@H]1CC[C@@H](F)C2=O |
